Test results from patent publication EP1534672B1, “RETINOL DERIVATIVES, THEIR USE IN THE TREATMENT OF CANCER AND FOR POTENTIATING THE EFFICACY OF OTHER CYTOTOXIC AGENTS” (priority 2002, dated 2004).

Test: single dose i.p. toxicity study in rats
Conditions: 100 mg/kg body weight

Row | SMILES | mortality
1 | CC1=C(/C=C/C(C)=C/C=C/C(C)=C/C(=O)N[C@@H](CS(=O)(=O)O)C(=O)O)C(C)(C)CCC1 [compound I-1, N-(all-trans-Retinoyl)-L-cysteic acid] | did not produce mortality
2 | CC1=C(/C=C/C(C)=C/C=C/C(C)=C\C(=O)N[C@@H](CCS(=O)(=O)O)C(=O)O)C(C)(C)CCC1 [compound II-3, N-(13-cis-Retinoyl)-L-homocysteic acid] | did not produce mortality
